From paper PMC5955836 (ACS chemical neuroscience, 2018)

By UniProt entry, the sequences of proteins in these tests, tags left out. Where a name states a change or a piece, a line headed by the entry shows the natural chain unless it says otherwise.
UniProt P56450, whole entry: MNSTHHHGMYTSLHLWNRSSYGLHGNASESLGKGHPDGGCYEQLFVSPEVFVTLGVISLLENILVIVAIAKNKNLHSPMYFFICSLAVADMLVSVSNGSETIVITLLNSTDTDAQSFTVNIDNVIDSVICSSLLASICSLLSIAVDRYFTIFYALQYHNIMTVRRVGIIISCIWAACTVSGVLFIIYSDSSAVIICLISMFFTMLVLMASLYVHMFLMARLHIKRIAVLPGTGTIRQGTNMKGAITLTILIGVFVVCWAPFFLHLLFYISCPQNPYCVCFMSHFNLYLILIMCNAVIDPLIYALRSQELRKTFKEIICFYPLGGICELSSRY
UniProt P33033: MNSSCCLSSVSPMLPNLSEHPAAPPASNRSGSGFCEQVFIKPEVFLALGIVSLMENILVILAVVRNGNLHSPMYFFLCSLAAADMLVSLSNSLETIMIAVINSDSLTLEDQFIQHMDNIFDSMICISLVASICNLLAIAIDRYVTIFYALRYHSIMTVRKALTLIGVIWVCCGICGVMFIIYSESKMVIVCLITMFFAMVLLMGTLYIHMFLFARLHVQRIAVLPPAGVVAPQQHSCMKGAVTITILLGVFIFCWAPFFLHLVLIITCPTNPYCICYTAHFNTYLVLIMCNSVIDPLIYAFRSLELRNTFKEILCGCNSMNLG
UniProt Q01727: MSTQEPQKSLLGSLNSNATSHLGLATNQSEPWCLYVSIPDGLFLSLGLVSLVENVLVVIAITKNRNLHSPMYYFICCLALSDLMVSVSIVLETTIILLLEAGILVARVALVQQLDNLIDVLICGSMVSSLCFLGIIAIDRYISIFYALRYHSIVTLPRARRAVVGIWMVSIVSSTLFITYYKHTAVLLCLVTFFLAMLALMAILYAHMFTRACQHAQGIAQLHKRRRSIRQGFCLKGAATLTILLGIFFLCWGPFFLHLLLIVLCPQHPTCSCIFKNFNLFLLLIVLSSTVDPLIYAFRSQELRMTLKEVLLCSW

Tests used:
mMC4R = mMC4R (Mus musculus, UniProt P56450); assay: AlphaScreen cAMP antagonist assay; type: cell-based; conditions: for fold less potent than 1 at the mMC4R: fold change from Ki values, compared to lead ligand 1; for selectivity for the mMC4R over the mMC3R: fold more potent at mMC4R than mMC3R
mMC3R [1] = target: T1, mMC3R (Mus musculus, UniProt P33033); assay: cell-based
mMC3R [2] = target: T1, mMC3R; conditions: fold change from Ki values, compared to lead ligand 1
mMC1R = mMC1R (Mus musculus, UniProt Q01727); assay: cell-based

Structure (SMILES) | fold less potent than 1 at the mMC4R (mMC4R) | Kb (mMC3R [1]) [µM] | selectivity for the mMC4R over the mMC3R (mMC4R) [fold] | fold decreased potency compared to 1 at the mMC3R (mMC3R [2]) | EC50 (mMC1R) [µM] | fold less potent than 1 at the mMC4R (mMC4R; listed as KAF2039-6) [fold] | fold less potent than 1 at the mMC4R (mMC4R; listed as Leu^7)
C[C@@H]1NC(=O)[C@H](CC(N)=O)NC(=O)[C@H](Cc2ccccc2)NC(=O)[C@H](Cc2ccccc2)NC(=O)[C@H](CCCNC(=N)N)NC(=O)[C@@H]2CCCN2C(=O)[C@H]2CCCN2C(=O)CNC1=O [Compound 2, c[Pro-Arg-Phe-Phe-Asn-Ala-Gly-DPro]] | 110 fold | > 3.16 |  |  |  |  | 
C[C@@H]1NC(=O)[C@H](CC(N)=O)NC(=O)[C@H](Cc2ccccc2)NC(=O)[C@H](Cc2ccccc2)NC(=O)[C@H](CCCNC(=N)N)NC(=O)[C@@H]2CCCN2C(=O)[C@H]2CCCN2C(=O)[C@H](CO)NC1=O [Compound 3, c[Pro-Arg-Phe-Phe-Asn-Ala-Ser-DPro]] | 10 fold |  |  |  |  |  | 
C[C@@H]1NC(=O)[C@H](CC(N)=O)NC(=O)[C@H](Cc2ccccc2)NC(=O)[C@H](Cc2ccccc2)NC(=O)[C@H](CCCNC(=N)N)NC(=O)[C@@H]2CCCN2C(=O)[C@H]2CCCN2C(=O)[C@H](CCCCN)NC1=O [Compound 4, c[Pro-Arg-Phe-Phe-Asn-Ala-Lys-DPro]] |  |  | 8 | 4 fold | > 100 |  | 
CC(C)C[C@@H]1NC(=O)[C@H](C)NC(=O)[C@H](CC(N)=O)NC(=O)[C@H](Cc2ccccc2)NC(=O)[C@H](Cc2ccccc2)NC(=O)[C@H](CCCNC(=N)N)NC(=O)[C@@H]2CCCN2C(=O)[C@H]2CCCN2C1=O [Compound 6, c[Pro-Arg-Phe-Phe-Asn-Ala-Leu-DPro]] |  | > 3.16 |  |  | > 100 | 15 | approximately 15 fold
CCCC[C@@H]1NC(=O)[C@H](C)NC(=O)[C@H](CC(N)=O)NC(=O)[C@H](Cc2ccccc2)NC(=O)[C@H](Cc2ccccc2)NC(=O)[C@H](CCCNC(=N)N)NC(=O)[C@@H]2CCCN2C(=O)[C@H]2CCCN2C1=O [Compound 7, c[Pro-Arg-Phe-Phe-Asn-Ala-Nle-DPro]] | equipotent |  | 200 | equipotent | > 100 |  | 
C[C@@H]1NC(=O)[C@H](CC(N)=O)NC(=O)[C@H](Cc2ccccc2)NC(=O)[C@H](Cc2ccccc2)NC(=O)[C@H](CCCNC(=N)N)NC(=O)[C@@H]2CCCN2C(=O)[C@H]2CCCN2C(=O)[C@H](Cc2c[nH]c3ccccc23)NC1=O [Compound 8, c[Pro-Arg-Phe-Phe-Asn-Ala-Trp-DPro]] | equipotent |  |  | equipotent |  |  | 
C[C@@H]1NC(=O)[C@H](CC(N)=O)NC(=O)[C@H](Cc2ccccc2)NC(=O)[C@H](Cc2ccccc2)NC(=O)[C@H](CCCNC(=N)N)NC(=O)[C@@H]2CCCN2C(=O)[C@H]2CCCN2C(=O)[C@H](Cc2ccc(O)cc2)NC1=O [Compound 9, c[Pro-Arg-Phe-Phe-Asn-Ala-Tyr-DPro]] | equipotent |  | 60 | equipotent | > 100 |  | 
C[C@@H]1NC(=O)[C@H](CC(N)=O)NC(=O)[C@H](Cc2ccccc2)NC(=O)[C@H](Cc2ccccc2)NC(=O)[C@H](CCCNC(=N)N)NC(=O)[C@@H]2CCCN2C(=O)[C@H]2CCCN2C(=O)[C@H](CC2CCCCC2)NC1=O [Compound 10, c[Pro-Arg-Phe-Phe-Asn-Ala-Cha-DPro]] |  |  |  | 3 fold | > 100 |  | 
C[C@@H]1NC(=O)[C@H](CC(N)=O)NC(=O)[C@H](Cc2ccccc2)NC(=O)[C@H](Cc2ccccc2)NC(=O)[C@H](CCCNC(=N)N)NC(=O)[C@@H]2CCCN2C(=O)[C@H]2CCCN2C(=O)[C@H](CCc2ccccc2)NC1=O [Compound 11, c[Pro-Arg-Phe-Phe-Asn-Ala-hPhe-DPro]] |  |  | 6 | equipotent | > 100 |  | 
